{"source": "patent EP4592276A1", "about": "“NOVEL ACY[…] OF PSILOCIN AND RELATED 4-HYDROXYT[…] BY AN EFFICIENT […] APPROACH” (Universität Heidelberg, priority 2024, dated 2025)", "test": "Drug release kinetics (prodrug cleavage) in human blood plasma", "format": "in vitro ADME", "conditions": "100 % human plasma, 37 °C, [ASS]0 = 560 µM"}
{"smiles": "CC(=O)Oc1ccccc1C(=O)O", "note": "[Acetylsalicylic acid, reference compound]", "values": [{"measurement": "half-life at 560 µM", "value": "2.43 ± 0.317", "unit": "h"}]}
